Chains of the proteins cited; added tags and fusions are not shown.
UniProt Q92633, whole entry: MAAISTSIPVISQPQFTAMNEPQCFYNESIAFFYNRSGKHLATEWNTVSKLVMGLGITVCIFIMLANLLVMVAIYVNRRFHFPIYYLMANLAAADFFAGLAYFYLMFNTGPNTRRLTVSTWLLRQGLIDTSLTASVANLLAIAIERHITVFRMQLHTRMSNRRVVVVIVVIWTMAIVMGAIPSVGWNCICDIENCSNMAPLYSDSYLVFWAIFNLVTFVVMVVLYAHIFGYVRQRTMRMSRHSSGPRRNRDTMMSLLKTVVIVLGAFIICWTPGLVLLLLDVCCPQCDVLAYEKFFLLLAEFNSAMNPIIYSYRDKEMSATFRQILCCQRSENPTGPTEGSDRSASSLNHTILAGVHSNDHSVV

According to US8802720B2, “Acylamino-substituted fused cyclopentanecarboxylic acid derivatives and their use as pharmaceuticals” (SANOFI, priority 2008, dated 2014):

Target: human Edg-2 receptor (LPA1 receptor) (Homo sapiens, UniProt Q92633)
Assay: Edg-2 receptor inhibition by FLIPR calcium fluorescence measurement (LPA-mediated calcium liberation)
Details: read-out: Inhibitory concentrations IC50 for inhibition of the Edg-2 receptor; CHO cells stably overexpressing human Edg-2 receptor; LPA 18:1 100 nM; fluo-4 fluorescence; triplicate

COc1ccc(C(=O)NC2(C(=O)O)Cc3ccccc3C2)cc1OCCc1ccc(CCO)cc1
IC50: < 100 nM
